Binding of CDR-mutated scFvs to a peptide of the spike HR2 region

The target is the same throughout: PDVDLGDISGINAS, from the HR2 region of SARS-CoV-2 spike.

The variants keep the heavy chain, the linker and the frameworks of Ab-95 (scFv order VH, a 15-residue (Gly4Ser)3 linker, VL).
VH: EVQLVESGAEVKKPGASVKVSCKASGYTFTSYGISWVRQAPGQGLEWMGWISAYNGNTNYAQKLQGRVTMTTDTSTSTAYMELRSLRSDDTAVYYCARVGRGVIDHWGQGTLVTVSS
VL: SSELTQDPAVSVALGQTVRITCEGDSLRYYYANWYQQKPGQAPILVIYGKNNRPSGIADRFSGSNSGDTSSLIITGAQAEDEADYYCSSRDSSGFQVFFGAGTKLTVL

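In library AAYL52, one, two or three CDR residues were substituted; doubles and triples were drawn at random. AlphaSeq pools MATa yeast showing the antibodies with MATalpha yeast showing the peptide. The frequency of each diploid, read from paired DNA barcodes, reflects how well the two displayed proteins bind. Each replicate has its own calibration line, from reference interactions of the BCL2 family. Mating was done three times.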

Changes read parent residue, position, new residue, counted from the first residue of the VL shown.
Scale: log10 of Kd in nM, estimated from mating counts; low values are strong binders.
The mean shown is taken over the replicates in which the pair was detected.
An entry "ND" has no value in the source: the pair was not observed among the diploids in that replicate. This suggests poor binding but is not conclusive.
Entries are sorted by rising average, undetected variants last.
Parent in this assay: reference entry 2.31, copy in this library 2.25.

| changes | log10 Kd (nM) by replicate | mean log10 Kd (nM) | signal with controls |
|---|---|---|---|
| D25Q+Y30Q+V97P | 1.56 / 1.09 / 1.06 | 1.24 | 0 of 9 |
| S89Q+D91C+S93L | 2.05 / 1.56 / 0.98 | 1.53 | 3 of 9 (2.97) |
| L27A+Y31D+A32I | 2.25 / 1.79 / 1.81 | 1.95 | 3 of 9 (3.43) |
| R28S+K50E+D91H | 1.97 / 2.03 / 2.49 | 2.16 | 0 of 9 |
| E23V+Y31I+N52L | 2.66 / 2.49 / 2.07 | 2.40 | 0 of 9 |
| R90H+F95Q+V97Q | 2.65 / 2.67 / 1.96 | 2.43 | 1 of 9 (3.88) |
| R28F+Y30F+N52V | 2.24 / 2.77 / 2.49 | 2.50 | 5 of 9 (4.07) |
| E23Q+L27D+S55R | 2.63 / ND / ND | 2.63 | 3 of 9 (3.88) |
| R28S+Y30T+G49A | 2.63 / 2.92 / 2.44 | 2.66 | 5 of 9 (3.78) |
| P54L+S92P | 3.10 / 3.18 / 2.22 | 2.83 | 4 of 9 (4.26) |
| R53L+Q96M | 3.39 / 2.74 / 2.39 | 2.84 | 2 of 9 (4.61) |
| Y30T+A32G+G94L | 2.43 / 2.82 / 3.61 | 2.95 | 2 of 9 (3.70) |
| G49D+S89T+S93L | 3.02 / 3.27 / 3.00 | 3.10 | 4 of 9 (3.57) |
| K50Y+P54A+S89V | 3.41 / 2.95 / 3.30 | 3.22 | 2 of 9 (4.50) |
| G24P+S55D | 3.48 / 2.97 / 3.33 | 3.26 | 4 of 9 (4.00) |
| G24S+G94L+F98V | 2.92 / 3.21 / 3.65 | 3.26 | 4 of 9 (3.90) |
| E23V+S55C+R90G | 3.25 / 3.35 / 3.33 | 3.31 | 6 of 9 (4.33) |
| L27R+N52C+P54E | 3.60 / ND / 3.03 | 3.31 | 2 of 9 (4.01) |
| G49K+F95W+F98Q | 3.34 / ND / ND | 3.34 | 1 of 9 (4.12) |
| N33P+G49R+N51A | 3.32 / 3.47 / ND | 3.40 | 2 of 9 (3.73) |
| G24S+N51R+S93P | 3.79 / ND / 3.08 | 3.44 | 2 of 9 (4.63) |
| R90P+V97K | 2.64 / 4.35 / ND | 3.49 | 3 of 9 (4.29) |

Continued, with the values leading:

| log10 Kd (nM) by replicate | mean log10 Kd (nM) | signal with controls | changes |
|---|---|---|---|
| 3.74 / 3.28 / ND | 3.51 | 4 of 9 (4.21) | Y29W+G49S+S93T |
| 3.95 / ND / 3.45 | 3.70 | 2 of 9 (4.15) | G49M+K50A+Q96W |
| 3.26 / 3.63 / 4.37 | 3.75 | 2 of 9 (4.15) | N33L+P54N+S92M |
| 4.12 / ND / 3.48 | 3.80 | 1 of 9 (3.81) | D25K+F95S+F98A |
| 3.83 / ND / ND | 3.83 | 2 of 9 (3.20) | R53E+S92H+G94F |
| 3.98 / ND / ND | 3.98 | 3 of 9 (3.78) | G49W+R90Y+Q96T |
| 4.24 / 3.57 / 4.13 | 3.98 | 0 of 9 | D25N+G94C+V97D |
| 4.97 / 3.45 / 3.78 | 4.06 | 2 of 9 (3.27) | S55G+S89T+S92C |
| 4.51 / ND / 3.75 | 4.13 | 7 of 9 (4.23) | G24D+K50P+F95D |
| ND / 4.16 / ND | 4.16 | 4 of 9 (4.58) | S26L+G49S+S93L |
| 4.00 / 4.42 / ND | 4.21 | 2 of 9 (3.49) | G24W+S92L+Q96E |
| ND / 4.63 / 4.13 | 4.38 | 0 of 9 | S26K+R28K+V97D |
| ND / ND / 4.46 | 4.46 | 3 of 9 (3.97) | A32P+N52C+P54Y |
| ND / 4.58 / ND | 4.58 | 2 of 9 (4.12) | R28Y+K50C+S93C |
| 5.45 / 4.30 / 4.28 | 4.68 | 5 of 9 (4.23) | Y31H+N33M+K50C |
| 5.94 / 5.25 / ND | 5.59 | 3 of 9 (4.34) | G24M+S55F+S89K |
| 5.63 / ND / ND | 5.63 | 3 of 9 (3.88) | S55I+D91M+G94T |
| ND / ND / ND | ND | 1 of 9 (5.34) | E23G+L27K+F98P |
| ND / ND / ND | ND | 0 of 9 | N33I+S92G+G94F |
| ND / ND / ND | ND | 1 of 9 (3.40) | L27K+G49T+S89R |
| ND / ND / ND | ND | 0 of 9 | E23C+L27N+G94V |
| ND / ND / ND | ND | 4 of 9 (3.59) | G24R+D25I+Q96G |

The last 5 entries again:

changes	log10 Kd (nM) by replicate	mean log10 Kd (nM)	signal with controls
E23G+L27K+F98P	ND / ND / ND	ND	1 of 9 (5.34)
N33I+S92G+G94F	ND / ND / ND	ND	0 of 9
L27K+G49T+S89R	ND / ND / ND	ND	1 of 9 (3.40)
E23C+L27N+G94V	ND / ND / ND	ND	0 of 9
G24R+D25I+Q96G	ND / ND / ND	ND	4 of 9 (3.59)

Background: pairings of library AAYL52 with three empty control strains gave a value in 28% of cases (median 3.91, 5th percentile 2.90). Values in that range, when seen in few replicates, are hard to tell from nonspecific mating. Also given: how often the same scFv was detected with the empty control strains, with their mean in brackets.

The measurements come from Engelhart et al. 2022 (doi:10.1038/s41597-022-01779-4) through the FLAb antibody collection.